Biological target: T1, SeviL (Mytilisepta virgata, UniProt A0A646QV53)
T1 construct: This vector directs expression of full-length SeviL carrying a thrombin-cleavable hexa-histidine tag; hexa-histidine tag (thrombin-cleavable; leaves residual GSH before the native Met) (N, cleaved yes); made in house; host or cells: E. coli BL21(DE3)
Test: biochemical
Type: binding
Procedure: Experimental details are given in Methods/Isothermal Titration Calorimetry. […] ITC experiments were repeated with the monomer mutant SeviL (Q12R/F126K). […] Errors in Kd for the native protein and monomer were determined from triplicate experiments. To produce a stronger signal and lower noise, further experiments were attempted with the concentrations of the native protein and ligand increased ten-fold. […] Different stereo views of the interaction between protein and ligand are shown in SFigure 11.
Figure 5 (A) A thermogram produced by injecting 1 mM asialo-GM1 saccharide into 50 μ M SeviL. The experiment was repeated three times, each thermogram being fitted to a one-site model (shown as a black line). Dissociation constants were calculated as weighted averages, and errors were calculated as weighted standard deviations, using the reciprocal chi-square values of each individual fit as weights.
Experiments were performed using a MicroCal iTC200 (GE) instrument. […] The data were analysed using the manufacturer’s software, assuming a simple single site model, to yield a Kd value and chi-square value from each experiment. […] Asialo-GM1 and GM1b were used at 1 mM concentration, each experiment being repeated three times, and errors were determined as the weighted standard deviation of these three values. […]

Amino acid sequences for entries named in this document (tags omitted). A change or cut given only in a name is not applied to a line headed by its entry.
UniProt A0A646QV53: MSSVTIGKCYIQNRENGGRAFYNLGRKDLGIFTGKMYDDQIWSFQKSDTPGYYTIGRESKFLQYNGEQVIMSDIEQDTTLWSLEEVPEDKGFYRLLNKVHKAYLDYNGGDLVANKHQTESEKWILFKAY

Q: `O=C[C@H](O)[C@@H](O)[C@@H](O)[C@H](O)CO` [galactose] was tested. Which Kd did it give?
A: 8 to 12 mM

— PMC7744527, “The structure of SeviL, a GM1b/asialo-GM1 binding R-type lectin from the mussel Mytilisepta virgata” (Scientific Reports, 2020)
